Experiments:
Plasmodium falciparum [1] = tested on: Plasmodium falciparum
Plasmodium falciparum [2] = tested on: Plasmodium falciparum; remark: listed apart in the source

| Structure (SMILES) | Ka (Plasmodium falciparum [1]) | Ka (Plasmodium falciparum [2]) |
| --- | --- | --- |
| Oc1ccc(-c2cc(-c3ccc(O)cc3)nc(NCCCCNc3ccnc4cc(Cl)ccc34)n2)cc1 | 7.73 10^6/M.s | 2.7 10^7/M.s |
| COc1ccc(-c2cc(-c3ccc(OC)cc3)nc(N3CCN(c4ccnc5cc(Cl)ccc45)CC3)n2)cc1 | 3.3 10^6/M.s | 5.99 10^3/M.s |
| COc1ccc(-c2cc(-c3ccc(OC)c(OC)c3)nc(N3CCN(c4ccnc5cc(Cl)ccc45)CC3)n2)cc1OC | 2.68 10^6/M.s | 1.34 10^4/M.s |
| Oc1ccc(-c2cc(-c3ccc(O)c(O)c3)nc(NCCCCNc3ccnc4cc(Cl)ccc34)n2)cc1 | 2.79 10^5/M.s | 1.91 10^6/M.s |
